Assay results as given in US11903945B2, “Methods of treating antipsychotic-induced weight gain with miricorilant” (Corcept Therapeutics Incorporated, priority 2019, dated 2024).

Settings: healthy male subjects
Description: The dose level tested in our Phase 1b trial was 600 mg/day.
A 2-week, single-center, double-blind, randomized, placebo-controlled study was conducted in healthy male subjects age 18-55 years with BMI between 18-25 kg/m^2 and a stable body weight (defined as the Day 1 pre-dose body weight to be within ±2.0% of screening body weight). […] Food was freely available to all subjects during the study. The difference in mean change in absolute body weight after administration of OLZ+PBO compared to OLZ+MIRI was evaluated using a repeated measures model with imputation applied to missing values.
(HOMA2-IR values were calculated from fasted glucose and insulin levels using the HOMA (HOMA2 Model) Calculator® application programming interface for SAS (Oxford University 2013, available at the website www.dtu.ox.ac.uk/homacalculator)).

Cc1cc2c(s1)Nc1ccccc1N=C2N1CCN(C)CC1 [olanzapine, reference compound]
HOMA2-IR increase from baseline on Day 15 (listed as miricorilant = MIRI 600 mg/day + OLZ 10 mg/day, listed as olanzapine = placebo + OLZ 10 mg/day): 1.21
Insulin increase from baseline, percent, day 8 (listed as miricorilant = olanzapine+miricorilant, listed as olanzapine = olanzapine+placebo): 121%
